In paper PMC4669789, “Selective inhibition of HDAC8 decreases neuroblastoma growth in vitro and in vivo and enhances retinoic acid-mediated differentiation” (Cell Death & Disease, 2015):
pIC50: −log10 of the molar value.

The chains behind the UniProt entries cited, without tags or fusion partners. Residues count along the entry.
UniProt P56524, 655-1084 limits assumed: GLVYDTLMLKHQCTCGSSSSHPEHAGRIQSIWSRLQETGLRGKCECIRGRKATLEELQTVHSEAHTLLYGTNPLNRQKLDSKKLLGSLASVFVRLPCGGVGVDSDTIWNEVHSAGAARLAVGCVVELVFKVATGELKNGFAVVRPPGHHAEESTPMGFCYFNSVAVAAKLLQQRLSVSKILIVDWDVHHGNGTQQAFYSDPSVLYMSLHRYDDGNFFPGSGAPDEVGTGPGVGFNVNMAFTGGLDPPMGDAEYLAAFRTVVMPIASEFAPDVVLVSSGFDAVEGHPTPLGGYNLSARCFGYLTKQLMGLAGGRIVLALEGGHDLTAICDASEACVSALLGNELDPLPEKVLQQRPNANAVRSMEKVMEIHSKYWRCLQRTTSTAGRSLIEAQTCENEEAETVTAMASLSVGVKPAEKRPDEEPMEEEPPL

Biological target: HDAC4 (Homo sapiens, UniProt P56524)
Assay: In vitro HDAC activity assay (Reaction Biology)
Assay type: biochemical
Settings: cell-free; read-out: IC50 values of HDAC8 inhibitors, HDAC4
Experimental: Peptide substrate was conjugated with AMC. […] The HDAC reaction was performed at 30 °C for 2 h before adding the developer reagent. The free AMC was detected with excitation of 360 nm and emission 460 nm at kinetic mode for 90 min. IC50 values were calculated with GraphPad Prism version 3.0a (GraphPad Software Inc., San Diego, CA, USA).

Compound: COc1ccc(Cn2ccc3ccc(C(=O)NO)cc32)cc1 [PCI-34051]
- pIC50: < 4.23
